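Test compounds were applied to cells in 96-well plates for 48 hours at 5 doses. GI50: concentration for 50% inhibition of growth. TGI: total growth inhibition.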
Legend:
Assay in all cases: inhibition of tumour cell growth, NCI panel, 48 h
BT-549 breast = system: BT-549 breast
OVCAR-4 ovarian = system: OVCAR-4 ovarian
NCI-H23 lung = system: NCI-H23 lung
T-47D breast = system: T-47D breast
U251 CNS = system: U251 CNS
UO-31 renal = system: UO-31 renal
PC-3 prostate = system: PC-3 prostate
A498 renal = system: A498 renal
UACC-257 melanoma = system: UACC-257 melanoma
OVCAR-3 ovarian = system: OVCAR-3 ovarian
NCI-H460 lung = system: NCI-H460 lung
NCI-H226 lung = system: NCI-H226 lung
SK-MEL-5 melanoma = system: SK-MEL-5 melanoma
KM12 colon = system: KM12 colon
SK-MEL-2 melanoma = system: SK-MEL-2 melanoma
HT29 colon = system: HT29 colon
COLO 205 colon = system: COLO 205 colon
MDA-MB-231 breast = system: MDA-MB-231 breast
HCT-15 colon = system: HCT-15 colon
A549 NSCLC = system: A549 NSCLC
SF-268 CNS = system: SF-268 CNS
M14 melanoma = system: M14 melanoma
HCC-2998 colon = system: HCC-2998 colon
HOP-92 NSCLC = system: HOP-92 NSCLC
UACC-62 melanoma = system: UACC-62 melanoma
TK-10 renal = system: TK-10 renal
OVCAR-5 ovarian = system: OVCAR-5 ovarian
MALME-3M melanoma = system: MALME-3M melanoma
SNB-19 CNS = system: SNB-19 CNS
LOX IMVI melanoma = system: LOX IMVI melanoma
HCT-116 colon = system: HCT-116 colon
SK-OV-3 ovarian = system: SK-OV-3 ovarian
HL-60(TB) leukemia = system: HL-60(TB) leukemia
SW-620 colon = system: SW-620 colon
SF-539 CNS = system: SF-539 CNS
DU-145 prostate = system: DU-145 prostate
786-0 renal = system: 786-0 renal
SNB-75 CNS = system: SNB-75 CNS
CCRF-CEM leukemia = system: CCRF-CEM leukemia
MDA-MB-435 = system: MDA-MB-435
OVCAR-8 ovarian = system: OVCAR-8 ovarian
NCI/ADR-RES ovarian = system: NCI/ADR-RES ovarian
ACHN renal = system: ACHN renal
IGROV1 ovarian = system: IGROV1 ovarian
HOP-62 NSCLC = system: HOP-62 NSCLC
RXF 393 renal = system: RXF 393 renal
CAKI-1 renal = system: CAKI-1 renal
SK-MEL-28 melanoma = system: SK-MEL-28 melanoma
HS 578T breast = system: HS 578T breast
SF-295 CNS = system: SF-295 CNS
MCF7 breast = system: MCF7 breast
EKVX NSCLC = system: EKVX NSCLC

Which GI50 (BT-549 breast) does the source give for `CCOP(=O)(Nc1ccccc1CC)OCC` here?
The GI50 was greater than 100 µM.

What about the TGI (BT-549 breast) of the same molecule?
Its TGI is greater than 100 µM.

What about the GI50 (OVCAR-4 ovarian) of the same molecule?
The GI50 was greater than 100 µM.

What about the TGI (OVCAR-4 ovarian) of the same molecule?
Its TGI is greater than 100 µM.

And the GI50 (NCI-H23 lung)?
Its GI50 is greater than 100 µM.

What about the TGI (NCI-H23 lung) of the same molecule?
Its TGI is greater than 100 µM.

And the GI50 (T-47D breast)?
The GI50 was greater than 100 µM.

What about the TGI (T-47D breast) of the same molecule?
The TGI was greater than 100 µM.

What about the GI50 (U251 CNS) of the same molecule?
Its GI50 is greater than 100 µM.

And the TGI (U251 CNS)?
The TGI was greater than 100 µM.

What about the GI50 (UO-31 renal) of the same molecule?
Its GI50 is greater than 100 µM.

What about the TGI (UO-31 renal) of the same molecule?
The TGI was greater than 100 µM.

And the GI50 (PC-3 prostate)?
The GI50 was greater than 100 µM.

And the TGI (PC-3 prostate)?
The TGI was greater than 100 µM.

And the GI50 (A498 renal)?
The GI50 was greater than 100 µM.

And the TGI (A498 renal)?
The TGI was greater than 100 µM.

What about the GI50 (UACC-257 melanoma) of the same molecule?
The GI50 was greater than 100 µM.

And the TGI (UACC-257 melanoma)?
The TGI was greater than 100 µM.

And the GI50 (OVCAR-3 ovarian)?
The GI50 was greater than 100 µM.

And the TGI (OVCAR-3 ovarian)?
The TGI was greater than 100 µM.

And the GI50 (NCI-H460 lung)?
The GI50 was greater than 100 µM.

What about the TGI (NCI-H460 lung) of the same molecule?
The TGI was greater than 100 µM.

And the GI50 (NCI-H226 lung)?
Its GI50 is greater than 100 µM.

What about the TGI (NCI-H226 lung) of the same molecule?
Its TGI is greater than 100 µM.

And the GI50 (SK-MEL-5 melanoma)?
The GI50 was greater than 100 µM.

And the TGI (SK-MEL-5 melanoma)?
The TGI was greater than 100 µM.

And the GI50 (KM12 colon)?
The GI50 was greater than 100 µM.

What about the TGI (KM12 colon) of the same molecule?
Its TGI is greater than 100 µM.

And the GI50 (SK-MEL-2 melanoma)?
The GI50 was greater than 100 µM.

What about the TGI (SK-MEL-2 melanoma) of the same molecule?
Its TGI is greater than 100 µM.

And the GI50 (HT29 colon)?
Its GI50 is greater than 100 µM.

And the TGI (HT29 colon)?
The TGI was greater than 100 µM.

What about the GI50 (COLO 205 colon) of the same molecule?
Its GI50 is greater than 100 µM.

And the TGI (COLO 205 colon)?
Its TGI is greater than 100 µM.

And the GI50 (MDA-MB-231 breast)?
Its GI50 is greater than 100 µM.

What about the TGI (MDA-MB-231 breast) of the same molecule?
The TGI was greater than 100 µM.

And the GI50 (HCT-15 colon)?
The GI50 was greater than 100 µM.

What about the TGI (HCT-15 colon) of the same molecule?
The TGI was greater than 100 µM.

And the GI50 (A549 NSCLC)?
The GI50 was greater than 100 µM.

And the TGI (A549 NSCLC)?
Its TGI is greater than 100 µM.

And the GI50 (SF-268 CNS)?
The GI50 was greater than 100 µM.

What about the TGI (SF-268 CNS) of the same molecule?
Its TGI is greater than 100 µM.

What about the GI50 (M14 melanoma) of the same molecule?
Its GI50 is greater than 100 µM.

And the TGI (M14 melanoma)?
Its TGI is greater than 100 µM.

What about the GI50 (HCC-2998 colon) of the same molecule?
Its GI50 is greater than 100 µM.

And the TGI (HCC-2998 colon)?
The TGI was greater than 100 µM.

And the GI50 (HOP-92 NSCLC)?
The GI50 was greater than 100 µM.

And the TGI (HOP-92 NSCLC)?
The TGI was greater than 100 µM.

And the GI50 (UACC-62 melanoma)?
The GI50 was greater than 100 µM.

What about the TGI (UACC-62 melanoma) of the same molecule?
The TGI was greater than 100 µM.

And the GI50 (TK-10 renal)?
The GI50 was greater than 100 µM.

What about the TGI (TK-10 renal) of the same molecule?
Its TGI is greater than 100 µM.

And the GI50 (OVCAR-5 ovarian)?
The GI50 was greater than 100 µM.

And the TGI (OVCAR-5 ovarian)?
Its TGI is greater than 100 µM.

What about the GI50 (MALME-3M melanoma) of the same molecule?
The GI50 was greater than 100 µM.

What about the TGI (MALME-3M melanoma) of the same molecule?
The TGI was greater than 100 µM.

What about the GI50 (SNB-19 CNS) of the same molecule?
The GI50 was 42.2 µM.

What about the TGI (SNB-19 CNS) of the same molecule?
The TGI was greater than 100 µM.

What about the GI50 (LOX IMVI melanoma) of the same molecule?
The GI50 was greater than 100 µM.

And the TGI (LOX IMVI melanoma)?
The TGI was greater than 100 µM.

And the GI50 (HCT-116 colon)?
Its GI50 is greater than 100 µM.

What about the TGI (HCT-116 colon) of the same molecule?
The TGI was greater than 100 µM.

What about the GI50 (SK-OV-3 ovarian) of the same molecule?
The GI50 was greater than 100 µM.

And the TGI (SK-OV-3 ovarian)?
Its TGI is greater than 100 µM.

What about the GI50 (HL-60(TB) leukemia) of the same molecule?
Its GI50 is 64.2 µM.

What about the TGI (HL-60(TB) leukemia) of the same molecule?
Its TGI is greater than 100 µM.

And the GI50 (SW-620 colon)?
Its GI50 is greater than 100 µM.

What about the TGI (SW-620 colon) of the same molecule?
The TGI was greater than 100 µM.

What about the GI50 (SF-539 CNS) of the same molecule?
Its GI50 is greater than 100 µM.

And the TGI (SF-539 CNS)?
The TGI was greater than 100 µM.

And the GI50 (DU-145 prostate)?
The GI50 was greater than 100 µM.

What about the TGI (DU-145 prostate) of the same molecule?
Its TGI is greater than 100 µM.

And the GI50 (786-0 renal)?
Its GI50 is greater than 100 µM.

What about the TGI (786-0 renal) of the same molecule?
Its TGI is greater than 100 µM.

What about the GI50 (SNB-75 CNS) of the same molecule?
The GI50 was greater than 100 µM.

And the TGI (SNB-75 CNS)?
Its TGI is greater than 100 µM.

And the GI50 (CCRF-CEM leukemia)?
The GI50 was greater than 100 µM.

And the TGI (CCRF-CEM leukemia)?
Its TGI is greater than 100 µM.

What about the GI50 (MDA-MB-435) of the same molecule?
Its GI50 is greater than 100 µM.

And the TGI (MDA-MB-435)?
The TGI was greater than 100 µM.

And the GI50 (OVCAR-8 ovarian)?
Its GI50 is greater than 100 µM.

What about the TGI (OVCAR-8 ovarian) of the same molecule?
The TGI was greater than 100 µM.

And the GI50 (NCI/ADR-RES ovarian)?
The GI50 was greater than 100 µM.

And the TGI (NCI/ADR-RES ovarian)?
The TGI was greater than 100 µM.

What about the GI50 (ACHN renal) of the same molecule?
Its GI50 is greater than 100 µM.

What about the TGI (ACHN renal) of the same molecule?
Its TGI is greater than 100 µM.

What about the GI50 (IGROV1 ovarian) of the same molecule?
Its GI50 is greater than 100 µM.

And the TGI (IGROV1 ovarian)?
Its TGI is greater than 100 µM.

And the GI50 (HOP-62 NSCLC)?
Its GI50 is greater than 100 µM.

And the TGI (HOP-62 NSCLC)?
The TGI was greater than 100 µM.

And the GI50 (RXF 393 renal)?
The GI50 was greater than 100 µM.

And the TGI (RXF 393 renal)?
The TGI was greater than 100 µM.

What about the GI50 (CAKI-1 renal) of the same molecule?
The GI50 was greater than 100 µM.

What about the TGI (CAKI-1 renal) of the same molecule?
Its TGI is greater than 100 µM.

And the GI50 (SK-MEL-28 melanoma)?
Its GI50 is greater than 100 µM.

And the TGI (SK-MEL-28 melanoma)?
Its TGI is greater than 100 µM.

And the GI50 (HS 578T breast)?
Its GI50 is greater than 100 µM.

What about the TGI (HS 578T breast) of the same molecule?
Its TGI is greater than 100 µM.

And the GI50 (SF-295 CNS)?
Its GI50 is greater than 100 µM.

And the TGI (SF-295 CNS)?
Its TGI is greater than 100 µM.

What about the GI50 (MCF7 breast) of the same molecule?
Its GI50 is greater than 100 µM.

What about the TGI (MCF7 breast) of the same molecule?
Its TGI is greater than 100 µM.

What about the GI50 (EKVX NSCLC) of the same molecule?
The GI50 was greater than 100 µM.

And the TGI (EKVX NSCLC)?
The TGI was greater than 100 µM.

Reference: PubChem BioAssay (NCI)
